How the values were obtained:
[1] = target: human recombinant ROCK II (Homo sapiens, UniProt O75116); test: Determination of Rho kinase inhibition (ROCK II, Caliper peptide phosphorylation assay); details: respective form (salt or free base) as obtained in the examples, 60 min at 32° C., tested form: HCl
recombinant human PKA = recombinant human PKA (Homo sapiens, UniProt P17612); test: Determination of Protein Kinase A inhibition (selectivity); details: from IC50 values, tested form: HCl
[2] = target: recombinant human PKG1-beta (Homo sapiens, UniProt Q13976); test: Determination of Protein Kinase G inhibition (selectivity); details: from IC50 values, tested form: HCl

Sequences of proteins named here, by UniProt entry; tags and fusion partners are left off. Residues count along the entry.
UniProt O75116, 11-552 limits assumed: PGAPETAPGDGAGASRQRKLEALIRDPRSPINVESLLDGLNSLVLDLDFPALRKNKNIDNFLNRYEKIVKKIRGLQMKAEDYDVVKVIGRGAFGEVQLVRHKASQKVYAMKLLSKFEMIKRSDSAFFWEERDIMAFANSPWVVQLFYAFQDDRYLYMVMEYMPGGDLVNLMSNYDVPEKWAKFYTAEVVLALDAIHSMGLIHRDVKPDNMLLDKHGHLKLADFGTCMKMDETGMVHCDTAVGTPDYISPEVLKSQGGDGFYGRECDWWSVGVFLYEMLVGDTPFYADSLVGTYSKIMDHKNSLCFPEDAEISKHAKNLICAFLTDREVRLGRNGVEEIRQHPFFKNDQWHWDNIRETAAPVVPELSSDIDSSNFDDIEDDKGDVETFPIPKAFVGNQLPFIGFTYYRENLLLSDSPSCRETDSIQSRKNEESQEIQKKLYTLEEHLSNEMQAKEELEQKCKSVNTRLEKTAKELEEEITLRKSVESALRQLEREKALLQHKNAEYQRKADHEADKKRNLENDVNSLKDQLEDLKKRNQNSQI
UniProt Q13976, 1-686 isoform 2: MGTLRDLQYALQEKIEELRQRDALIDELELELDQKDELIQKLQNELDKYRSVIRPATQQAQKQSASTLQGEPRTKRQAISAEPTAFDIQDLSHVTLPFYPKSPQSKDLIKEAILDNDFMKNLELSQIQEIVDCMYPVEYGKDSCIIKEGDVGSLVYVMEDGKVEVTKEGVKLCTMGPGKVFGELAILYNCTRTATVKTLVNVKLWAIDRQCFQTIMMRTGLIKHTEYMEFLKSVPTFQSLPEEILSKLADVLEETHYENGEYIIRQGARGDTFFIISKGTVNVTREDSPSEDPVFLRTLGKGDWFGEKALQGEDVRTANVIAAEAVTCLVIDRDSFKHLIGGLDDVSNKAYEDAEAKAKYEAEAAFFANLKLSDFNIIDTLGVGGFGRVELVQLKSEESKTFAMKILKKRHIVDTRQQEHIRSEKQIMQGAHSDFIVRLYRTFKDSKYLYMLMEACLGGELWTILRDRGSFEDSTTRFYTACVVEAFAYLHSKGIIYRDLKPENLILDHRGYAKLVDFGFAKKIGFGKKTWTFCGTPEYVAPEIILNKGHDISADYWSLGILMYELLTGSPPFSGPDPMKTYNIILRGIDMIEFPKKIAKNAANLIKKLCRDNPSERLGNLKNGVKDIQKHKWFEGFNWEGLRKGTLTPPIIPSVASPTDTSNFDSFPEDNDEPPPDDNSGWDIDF

CCC(N)C1(C)CCC(Oc2cc3cc[nH]c(=O)c3cc2Cl)CC1 (single isomer, unassigned) [32]
pIC50 [1]: +++++++ (8.0 ≦ pIC50) | Selectivity against PKA (recombinant human PKA): >1000 fold | Selectivity against PKG [2]: >300 fold

CCC(N)C1(C)CCC(Oc2cc3cc[nH]c(=O)c3cc2Cl)CC1 (single isomer, unassigned) [33]
pIC50 [1]: +++++++ (8.0 ≦ pIC50) | Selectivity against PKA (recombinant human PKA): >1000 fold | Selectivity against PKG [2]: >1000 fold
